The values below come from US20250034201A1, “PRODRUGS OF GANAXOLONE” (priority 2022, published 2025).

The structures appear in SMILES notation.

The series is classed as in vitro ADME. On the procedure:
For several compounds only human liver microsomal stability was tested. […] The microsomal assays were carried out with and without the addition of NADPH at a final concentration of 1 mM. For negative control samples, NADPH reagent was not added. […] Note that compounds undergo only Phase I metabolism in liver microsomes.

As for `CC(=O)[C@H]1CC[C@H]2[C@@H]3CC[C@H]4C[C@](C)(CC(=O)COC(=O)NCCN(C)C)CC[C@]4(C)[C@H]3CC[C@]12C` [Compound 217], the “Comments: production of GNX (ganaxolone) in human liver microsomes” value is “In human small amount of GNX produced”.
